Experimental data taken from patent EP1590666B1, “COMPOSITIONS AND METHODS FOR ENHANCING APOPTOSIS” (GENENTECH, INC., priority 2003, dated 2004).
pKi: −log10 of the molar value.

By UniProt entry, the sequences of proteins in these tests, tags left out. Residues count along the entry.
UniProt P98170, 124-240 C202A/C213G: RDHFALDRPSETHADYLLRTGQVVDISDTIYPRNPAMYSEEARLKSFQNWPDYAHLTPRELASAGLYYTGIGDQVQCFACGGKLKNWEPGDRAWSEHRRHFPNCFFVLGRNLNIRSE
UniProt P98170, 241-356: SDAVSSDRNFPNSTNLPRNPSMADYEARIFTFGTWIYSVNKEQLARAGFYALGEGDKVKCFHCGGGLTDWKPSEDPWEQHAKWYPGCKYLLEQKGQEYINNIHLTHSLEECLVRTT

Assays:
Experiment in all cases: fluorescence polarization-based competition assay
Format in all cases: binding
[1] = target: T1, XIAP-BIR2 (Homo sapiens, UniProt P98170, C202A/C213G)
T1 construct: X-IAP BIR2 (amino acid residues 124-240 with mutations C202A and C213G); made in house; host or cells: Escherichia coli BL21 (DE3)
Method: (§1) The apparent Kd values can be determined from the EC50 values.
(§2) The apparent Kd values were determined from the EC50 values. […] Samples were read after a 10-minute incubation.

[2] = target: T2, ML-IAP-BIR (Homo sapiens, UniProt Q96CA5)
T2 construct: made in house; host or cells: Escherichia coli BL21 (DE3)
T2 sequence (Q96CA5 63-179): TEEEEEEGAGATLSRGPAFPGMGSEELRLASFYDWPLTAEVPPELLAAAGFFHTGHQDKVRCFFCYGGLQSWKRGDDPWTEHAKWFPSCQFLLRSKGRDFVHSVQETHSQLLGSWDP
Method: as §1, §2

[3] = target: XIAP-BIR3 (Homo sapiens, UniProt P98170); parameters: X-IAP BIR3 (amino acids residues 241-356); made in house; host or cells: Escherichia coli BL21 (DE3)
Method: as §1, §2

[4] = Table 4, P4 amino acid/phenylethylamine scan

Compound | pKi [1, 4] | pKi [2] | pKi ([1]; Table 3, positional scanning) | pKi [3]
CC[C@H](C)[C@H](NC(=O)[C@@H](NC(=O)[C@H](C)N)C(C)C)C(=O)N[C@H](C(=O)N[C@@H](C)C(=O)N[C@@H](CCC(N)=O)C(=O)N[C@@H](CCCCN)C(=O)N[C@@H](CO)C(=O)N[C@@H](CCC(=O)O)C(=O)O)[C@@H](C)CC |  | 5.46 | 4.35 | 
CC[C@H](C)[C@H](NC(=O)[C@@H]1CCCN1C(=O)[C@H](CCCNC(=N)N)NC(=O)[C@H](C)N)C(=O)N[C@@H](C)C(=O)N[C@@H](CCC(N)=O)C(=O)N[C@@H](CCCCN)C(=O)N[C@@H](CO)C(=O)N[C@@H](CCC(=O)O)C(=O)O |  | 6.14 | 4.16 | 
COc1cccc(C[C@H](NC(=O)[C@@H]2CCCN2C(=O)[C@@H](NC(=O)[C@H](C)N)C(C)C)C(=O)N[C@@H](C)C(=O)N[C@@H](CCC(N)=O)C(=O)N[C@@H](CCCCN)C(=O)N[C@@H](CO)C(=O)N[C@@H](CCC(=O)O)C(=O)O)c1 [AVPX5AQKSE] |  | 6.28 | 4.88 | 6.15
CC[C@H](C)[C@H](NC(=O)[C@@H]1CCCN1C(=O)[C@H](CCCCN)NC(=O)[C@H](C)N)C(=O)N[C@@H](C)C(=O)N[C@@H](CCC(N)=O)C(=O)N[C@@H](CCCCN)C(=O)N[C@@H](CO)C(=O)N[C@@H](CCC(=O)O)C(=O)O |  | 5.72 | 4.08 | 
CC[C@H](C)[C@H](NC(=O)[C@@H]1CCCN1C(=O)[C@H](Cc1c[nH]c2ccccc12)NC(=O)[C@H](C)N)C(=O)N[C@@H](C)C(=O)N[C@@H](CCC(N)=O)C(=O)N[C@@H](CCCCN)C(=O)N[C@@H](CO)C(=O)N[C@@H](CCC(=O)O)C(=O)O |  | 5.72 | 4.34 | 
CC(C)[C@H](NC(=O)[C@H](C)N)C(=O)N1CCC[C@H]1C(=O)NCC(c1ccccc1)c1ccccc1 [AVPX24] | 5.19 |  |  | 
CC[C@H](C)[C@H](NC(=O)[C@@H]1CCCN1C(=O)[C@H](Cc1ccc(O)cc1)NC(=O)[C@H](C)N)C(=O)N[C@@H](C)C(=O)N[C@@H](CCC(N)=O)C(=O)N[C@@H](CCCCN)C(=O)N[C@@H](CO)C(=O)N[C@@H](CCC(=O)O)C(=O)O |  | 5.80 | 4.57 | 
CC[C@H](C)[C@H](NC(=O)[C@@H]1CCCN1C(=O)[C@H](CC(C)C)NC(=O)[C@H](C)N)C(=O)N[C@@H](C)C(=O)N[C@@H](CCC(N)=O)C(=O)N[C@@H](CCCCN)C(=O)N[C@@H](CO)C(=O)N[C@@H](CCC(=O)O)C(=O)O |  | 5.77 | < 3.52 | 
CC[C@H](C)[C@H](NC(=O)[C@H](CC(C)C)NC(=O)[C@@H](NC(=O)[C@H](C)N)C(C)C)C(=O)N[C@@H](C)C(=O)N[C@@H](CCC(N)=O)C(=O)N[C@@H](CCCCN)C(=O)N[C@@H](CO)C(=O)N[C@@H](CCC(=O)O)C(=O)O |  | 5.46 | 4.08 | 
CC(C)[C@H](NC(=O)[C@H](C)N)C(=O)N1CCC[C@H]1C(=O)N[C@@H](CCc1ccccc1)C(=O)N[C@@H](C)C(=O)N[C@@H](CCC(N)=O)C(=O)N[C@@H](CCCCN)C(=O)N[C@@H](CO)C(=O)N[C@@H](CCC(=O)O)C(=O)O [AVPX12AQKSE] |  | 6.20 | 5.17 | 5.34
CC(C)[C@H](NC(=O)[C@H](C)N)C(=O)N1CCC[C@H]1C(=O)N[C@@H](Cc1ccc(N)cc1)C(=O)N[C@@H](C)C(=O)N[C@@H](CCC(N)=O)C(=O)N[C@@H](CCCCN)C(=O)N[C@@H](CO)C(=O)N[C@@H](CCC(=O)O)C(=O)O [AVPX4AQKSE] |  | 6.26 | 4.14 | 5.70
CC(C)[C@H](NC(=O)[C@H](C)N)C(=O)N1CCC[C@H]1C(=O)N[C@@H](Cc1ccc([N+](=O)[O-])cc1)C(=O)N[C@@H](C)C(=O)N[C@@H](CCC(N)=O)C(=O)N[C@@H](CCCCN)C(=O)N[C@@H](CO)C(=O)N[C@@H](CCC(=O)O)C(=O)O [AVPX3AQKSE] |  | 6.00 | 4.29 | 5.89
CC[C@H](C)[C@H](NC(=O)[C@@H]1CCCN1C(=O)[C@@H]1CCCN1C(=O)[C@H](C)N)C(=O)N[C@@H](C)C(=O)N[C@@H](CCC(N)=O)C(=O)N[C@@H](CCCCN)C(=O)N[C@@H](CO)C(=O)N[C@@H](CCC(=O)O)C(=O)O |  | < 3.64 | < 3.52 | < 3.38
CC[C@H](C)[C@H](NC(=O)[C@@H]1CCCN1C(=O)CNC(=O)[C@H](C)N)C(=O)N[C@@H](C)C(=O)N[C@@H](CCC(N)=O)C(=O)N[C@@H](CCCCN)C(=O)N[C@@H](CO)C(=O)N[C@@H](CCC(=O)O)C(=O)O |  | 4.62 | < 3.52 | 
CC[C@H](C)[C@H](NC(=O)[C@@H]1CCCN1C(=O)[C@H](Cc1c[nH]cn1)NC(=O)[C@H](C)N)C(=O)N[C@@H](C)C(=O)N[C@@H](CCC(N)=O)C(=O)N[C@@H](CCCCN)C(=O)N[C@@H](CO)C(=O)N[C@@H](CCC(=O)O)C(=O)O |  | 5.62 | 4.42 | 
CC(C)[C@H](NC(=O)[C@H](C)NC(=O)[C@H](Cc1ccccc1)NC(=O)[C@@H]1CCCN1C(=O)[C@@H](NC(=O)[C@H](C)N)C(C)C)C(=O)N[C@@H](CCCCN)C(=O)N[C@@H](CO)C(=O)N[C@@H](CCC(=O)O)C(=O)O |  | 6.80 | 4.83 | 6.41

Results, then the compound that gave them:

pKi [1, 4] | pKi [2] | pKi ([1]; Table 3, positional scanning) | pKi [3] | Compound
5.17 |  |  |  | COC[C@H](Cc1ccccc1)NC(=O)[C@@H]1CCCN1C(=O)[C@@H](NC(=O)[C@H](C)N)C(C)C [AVPX38]
5.26 |  |  |  | CC(C)[C@H](NC(=O)[C@H](C)N)C(=O)N1CCC[C@H]1C(=O)N[C@H](CO)[C@H](O)c1ccccc1 [AVPX27]
5.14 |  |  |  | CC(C)[C@H](NC(=O)[C@H](C)N)C(=O)N1CCC[C@H]1C(=O)NCCc1cccc(F)c1 [AVPX37]
5.03 |  |  |  | CC(C)[C@H](NC(=O)[C@H](C)N)C(=O)N1CCC[C@H]1C(=O)NC[C@H](O)c1ccccc1 [AVPX33]
5.19 |  |  |  | CC(C)[C@H](NC(=O)[C@H](C)N)C(=O)N1CCC[C@H]1C(=O)NCCc1cccc(C(F)(F)F)c1 [AVPX26]
4.89 |  |  |  | CC(C)[C@H](NC(=O)[C@H](C)N)C(=O)N1CCC[C@H]1C(=O)N[C@@H](CO)[C@@H](O)c1ccccc1 [AVPX25]
5.20 |  |  |  | CCOc1ccccc1CCNC(=O)[C@@H]1CCCN1C(=O)[C@@H](NC(=O)[C@H](C)N)C(C)C [AVPX40]
5.33 |  |  |  | CC(CNC(=O)[C@@H]1CCCN1C(=O)[C@@H](NC(=O)[C@H](C)N)C(C)C)c1ccccc1 (stereo partly drawn) [AVPX31]
4.92 |  |  |  | COc1ccc(Br)cc1CCNC(=O)[C@@H]1CCCN1C(=O)[C@@H](NC(=O)[C@H](C)N)C(C)C [AVPX36]
5.42 |  |  |  | CC(C)[C@H](NC(=O)[C@H](C)N)C(=O)N1CCC[C@H]1C(=O)NCCc1cccc(Cl)c1 [AVPX39]
5.28 |  |  |  | CCOc1cccc(CCNC(=O)[C@@H]2CCCN2C(=O)[C@@H](NC(=O)[C@H](C)N)C(C)C)c1 [AVPX34]
